# Test system: complex IV of the mitochondrial electron transport chain
structure (smiles),measurement,setting,value
"CN(C)C(=N)NC(=N)N [metformin, N,N-Dimethylimidodicarbonimidic diamide]","Difference between 5 and 20 μM treatments, three proteins found at 5, 20 and 100 μM",5 μM vs 20 μM metformin,no significant differences
same,"Fold changes of the 9 complex IV members found, against all other proteins",20 and 100 μM metformin,lower negative fold changes than all other proteins
